Values of other authors, collected in US20240398790A1 (ABBVIE INC., priority 2021, published 2024).

Test system: AS
Settings: literature; cited from earlier work

Question: For abatacept: T cell blockade inhibitor, which “efficacy achieved in AS” value is on record?
Answer: The value was “low efficacy”.
